The values below are quoted from earlier work in patent publication US10688087B2, “Pharmaceutical compositions and therapeutic methods employing a combination of a manganese complex compound and a non-manganese complex form of the compound” (PLEDPHARMA AB, priority 2009, dated 2020).

Each structure is given as a SMILES string.

For this series the following is noted: dose level of 10 μmol/kg b.w. MnDPDP (Toft et al., 1997); cited from earlier work.

Consider `Cc1ncc(COP(=O)(O)O)c(CN(CCN(CC(=O)O)Cc2c(COP(=O)(O)O)cnc(C)c2O)CC(=O)O)c1O.[Mn]` [MnDPDP, Manganese N,N′-bis-(pyridoxal-5-phosphate)-ethylenediamine-N,N′-diacetic acid], for which the “fraction of MnDPDP metabolized into MnPLED” value is on record as “about ⅓”.
